“And” between values parts separate entries of the source, which are not always exact repeats. Identical values can stand only once.

Chains of the proteins cited; added tags and fusions are not shown. Residues count along the entry.
UniProt P05067, 672-711: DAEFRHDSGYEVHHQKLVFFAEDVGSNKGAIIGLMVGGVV

In the first assay the target is T1, Aβ fibrils (Homo sapiens, UniProt P05067).
T1 construct: aging 1 ml aliquots of a 200 µM Aβ 1-40 peptide solution
Nature of the assay: Fibril binding assay (competition with radiolabelled compound, filtration). The conditions noted are these: Table I; read-out: Fibril binding Kd's cmpd. The procedure: The following materials are needed for the Fibril binding assay: Millipore multifilter apparatus; 12 x 75 glass tubes; GF/F 25 mm glass filters; PBS/0.1 % tween 20 at 4°C (PBST); Aβ fibrils; radioactive compound; nonradioactive compound; Eppendorf repeat pipettor with tips; labels; forceps; and vacuum.
In this assay, each sample is run in triplicate. The "aged" Aβ fibril is first prepared approximately 8 days in advance by aging 1 ml aliquots of a 200 µM Aβ 1-40 peptide solution in 4%DMSO/PBS for 8 days at 37°C with rocking. Such "aged" Aβ peptide can be tested directly on cells or frozen at -80°C.
The 200 µM Aβ fibril is diluted in PBST to yield a 4 µM solution (320 µl in 16 ml PBST). 100µl aliquots of this solution are added per tube with the repeat pipettor.
The β-amyloid modulator compound (200µL) is then added to the appropriate tube containing the Aβ fibril.
The radioactively labeled β-amyloid modulator compound is prepared using standard radioactive safety protocols by making a dilution into a PBS/0.1% tween-20 solution such that there is a final concentration of 20,000 dpm per 100 µL. 100 µl aliqouots of the radioactively labeled β-amyloid modulator compound are added per tube using the repeat pipettor. The samples are covered with parafilm and incubated at 37 °C inside plastic radioactivity bags overnight.
To filter the samples, the filters are pre-wetted in a small volume of PBST. Two Millipore multifiltration apparati are set with GF/F filters in each filtration slot following the instructions from the manufacturer. The samples are removed from the 37 °C incubator and each sample is filtered using a small volume (~5 ml) of cold PBST buffer. The sample tube is then washed with two additional 5 mL volumes of cold PBST buffer. The vacuum is allowed to pull to a semi dry filter for approximately 2 minutes after adding the last sample and the filter is transferred to a labelled tube for iodination counting. One minute counts are recorded, the data is plotted, and the Prism program (GraphPAD) is used to analyze the graph, according to the manufacturer's instrutions.
Regarding TFA·N-ethyl-(Gaffvl)-NH2 [PPI-969], the Kd was found to be 1.13 nM.
TFA•H-lffvl-isopropylamide [PPI-1094]: the Kd turned out to be 3.7 nM.
For TFA·H-(Glvffl)-NH2 [PPI-1013], the Kd was determined as 0.247 nM.
“TFA·1-piperidine-acetyl-(lffvl)-NH2 [PPI-1089]”: the Kd was determined as 0.57 nM.
With “TFA·H-( D-Nle-vff- D-Nle)-NH2 [PPI-1042]”, the Kd is 0.234 nM.
Consider TFA·H-(ivffi)-NH2 [PPI-1038], for which the Kd is 0.652 nM.
In the case of TFA·N-ethyl-(IvfH)-NH2 [PPI-1022], the Kd was 0.15 nM.
On the same count and under the same terms, with TFA·N-ethyl-(Glvffl)-NH2 [PPI-1017] the figure was 0.389 nM.
“TFA·1-piperidine-acetyl-(lvffl)-NH2 [PPI-1088]”: the Kd worked out at 3.4 nM.
Consider TFA·N-ethyl-(Giffvl)-NH2 [PPI-1018], for which the Kd was 0.701 nM.
Still for that read-out and setting: in the case of TFA·H-(iiffi)-NH2 [PPI-1040] it was 0.408 nM.
For the substance TFA•H-(lvffl)-OH [PPI-1261], the Kd worked out at 11.2 nM.
As to TFA·H-lvffl-isopropylamide [PPI-1093], the Kd was determined as 1.02 nM.
Consider TFA•H-(lffvl)-methylamide [PPI-1180], for which the Kd was 0.33 nM.
Still for that read-out and setting: in the case of TFA·H-(D-Nle-vffa)-NH2 [PPI-1041] it was 1.61 nM; in that of TFA·N-propyl-(lvffl)-NH2 [PPI-1025], 0.43 nM.
For TFA·H-(ivffa)-NH2 [PPI-1039], the Kd worked out at 2.44 nM.
With TFA·H-(lvffa)-isopropylamide [PPI-992], the Kd turned out to be 2.43 nM.
Same read-out and setting: with TFA·N,N-dimethyl-(lvffl)-NH2 [PPI-1007] the figure was 0.864 nM and 0.627 nM; with TFA•H-(lvffl)-methylamide [PPI-1179], 0.604 nM.
TFA·N-methyl-(lffvl)-NH2 [PPI-1020]: the Kd is 0.601 nM.
TFA·N,N-diethyl-(Glvffl)-NH2 [PPI-1028]: the Kd is 0.49 nM.
On to TFA·N,N-dimethyl-(lffvl)-NH2 [PPI-1008], for which the Kd turned out to be 1.75 nM.

The assay is the same for the next values; noted with them: Table II; read-out: Fibril binding Kd's cmpd.
Turning to TFA•H-(lvf-[F5]f-l)-NH2 [PPI-1303], the Kd amounted to 1.1 nM.
Still for that read-out and setting: with TFA·H-(l-D-Cha-fvl)-NH2 [PPI-1322] the figure was 1.2 nM; with TFA·H-(lf-[F5]f-vl)-NH2 [PPI-1320], 1.4 nM; with TFA•H-(lvf-D-Cha-l)-NH2 [PPI-1301], 1.1 nM.
As to TFA-H-lvf-NH-NH2 [PPI-1155], the Kd is 124 nM.
Regarding TFA•H-(lvf-[p-F]f-l)-NH2 [PPI-1302], the Kd amounted to 0.22 nM.
On to 2 TFA·H-lvf-NH-NH-fvl-H [PPI-1125], for which the Kd was 1.27 nM and 1.34 nM.
In the case of “TFA·H-(l-[p-F]f-[p-F]f-vl)-NH2 [PPI-1327]”, the Kd stood at 0.82 nM.
Turning to TFA·H-(l-[F5]f-[F5]f-vl)-NH2 [PPI-1328], the Kd stood at 2.4 nM.
Turning to 2TFA·H-(lkfvl)-NH2 [PPI-1325], the Kd stood at 1.4 nM.
On to TFA·H-lvf-NH-NH-Acetyl [PPI-1133], for which the Kd was found to be 318 nM.
Take TFA·H-(l-D-Cha-D-Cha-vl)-NH2 [PPI-1326]: the Kd turned out to be 0.56 nM.
For TFA•N-methyl-(lvffl)-NH2 [PPI-1019], the Kd was 0.411 nM and 0.534 nM.

Still in this assay, the particulars now being: Table III; 3-point assay, approximate; read-out: Fibril binding Kd's cmpd.
As to TFA• Me-(lvff-[nle])-NH2 [PPI-1788], the Kd is around 4 nM.
For TFA· Me-(lvffl)-NH-OH [PPI-1800], the Kd is around 4 nM.

Staying with this assay, now noted: Table III; read-out: Fibril binding Kd's cmpd.
With TFA • H-lff-(nvl)-l-NH2 [PPI-1635], the Kd is 1.4 nM.
Same read-out and setting: with 2TFA •H-LVF-NH-NH-fvl-H [PPI-1621] the figure was 8.7 nM.
Consider TFA• Me-(lv-[p-F]f-fl)-NH2 [PPI-1784], for which the Kd was determined as 2.5 nM.
Turning to TFA•H-(lv-[p-F]f-fl)-NH2 [PPI-1785], the Kd is 2.8 nM.
As to TFA•Me-lvff-[nvl])-NH2 [PPI-1787], the Kd amounted to 5.8 nM.
The same measure, in the same setting: in the case of 2TFA • H-LVF-NH-NH-FVL-H [PPI-1619] it was 35 nM; in that of “TFA • H-l-[pF]f-[pF]f-(nvl)-l-NH2 [PPI-1637]”, 1.8 nM; in that of TFA • H-lvffl-NH-CH2CH2-NH2 [PPI-1465], 3.6 nM.

Source of the values: patent EP1870419A2, “Modulators of beta-amyloid peptide aggregation comprising D-amino acids” (Praecis Pharmaceuticals Incorporated, priority 1999, dated 2000).
